The entries are a selection whose mix differs from that of the whole data set. Inconclusive results are not listed. Calls of active or inactive are those of the source. The call rests on the fitted dose curve; in most records, active means well fitted inhibition curve with a large enough effect; inconclusive means small, poorly fitted or top-dose-only effect; inactive means no such curve, though single readings can be large or run the other way.
Target: Polyunsaturated fatty acid lipoxygenase ALOX15 (Homo sapiens) (UniProt P16050)
Test: qHTS Assay for Inhibitors of 15-hLO (15-human lipoxygenase); further: nearly all actives have a fitted effect of over 55% in size
Conditions: purified 15hLO-1, xylenol orange hydroperoxide absorbance; series mostly up to 57.1 µM; activity change, negative = inhibition: at the top concentration
On the % scale 0 is the no-effect control and ±100 the full control effect; potency means the concentration at half of the fitted maximal effect.

By UniProt entry, the sequences of proteins in these tests, tags left out. Where a name states a change or a piece, a line headed by the entry shows the natural chain unless it says otherwise.
UniProt P16050: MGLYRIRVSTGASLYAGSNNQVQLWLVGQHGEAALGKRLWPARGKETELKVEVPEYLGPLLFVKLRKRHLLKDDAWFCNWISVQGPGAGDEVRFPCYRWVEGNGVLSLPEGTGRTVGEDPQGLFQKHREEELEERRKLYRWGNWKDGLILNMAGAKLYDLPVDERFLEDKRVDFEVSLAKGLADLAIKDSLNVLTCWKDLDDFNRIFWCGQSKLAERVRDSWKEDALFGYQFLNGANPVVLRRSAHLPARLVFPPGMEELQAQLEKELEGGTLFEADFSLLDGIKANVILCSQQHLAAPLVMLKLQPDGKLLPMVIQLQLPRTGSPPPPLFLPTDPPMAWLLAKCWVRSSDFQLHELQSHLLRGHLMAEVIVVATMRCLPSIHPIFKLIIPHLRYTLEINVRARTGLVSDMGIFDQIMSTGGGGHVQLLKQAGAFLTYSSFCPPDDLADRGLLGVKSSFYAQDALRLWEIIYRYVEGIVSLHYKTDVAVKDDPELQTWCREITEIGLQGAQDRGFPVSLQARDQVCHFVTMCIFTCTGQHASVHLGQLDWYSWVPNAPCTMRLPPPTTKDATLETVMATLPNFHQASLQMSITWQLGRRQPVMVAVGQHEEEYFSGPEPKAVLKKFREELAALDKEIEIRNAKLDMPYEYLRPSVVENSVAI

SMILES	activity change, negative = inhibition	Potency
CCc1nc2c(n1)c1c(non1O)c1c2no[n+]1[O-]	inactive: 3.49%	–
O=C(CO)Nc1ccc([As](=O)(O)O)cc1	inactive: 6.5% [at 11.4 µM]	–
CN(C(=O)Cc1ccccc1)[C@@H]1CC[C@@]2(CCCO2)C[C@H]1N1CCCC1	–	active: 3.16 µM
CN(C(=O)Cc1ccc(Cl)c(Cl)c1)[C@H]1CCCC[C@@H]1N1CCCC1	inactive	–
C(Cc1nn[nH]n1)c1nn[nH]n1	inactive: 9.94% [at 11.4 µM]	–
[N-]=[N+]=NCC(O)CN=[N+]=[N-] (stereo not drawn)	inactive: 10.8% [at 11.4 µM]	–
O=[N+]([O-])c1ccc(C[As](=O)(O)O)cc1	inactive: -0.942% [at 11.4 µM]	–
O=P1(Nc2nc3ccc(Cl)cc3s2)COc2ccccc2O1 (stereo not drawn)	inactive: -4.94%	–
COC(=O)c1cc2c(s1)N=C(c1ccccc1)N(C)P2(=O)N1CCOCC1 (stereo not drawn)	inactive: 13.1%	–
[N-]=[N+]=Nc1ccc([As](=O)(O)O)cc1	inactive: -0.557% [at 11.4 µM]	–
Cc1cc([N+](=O)[O-])cc([N+](=O)[O-])c1O	inactive: -7.19%	–
O=C(OC1CN2CCC1CC2)c1cccc(Cl)c1 (stereo not drawn)	inactive: -0.491%	–
c1nnnn1CCn1cnnn1	inactive: 2.28%	–
O=P(Nc1nccs1)(c1ccccc1)c1ccccc1	inactive: 8.45%	–
C[C@@H](O)COc1ccc([As](=O)(O)O)cc1N	inactive: 3.6% [at 11.4 µM]	–
CN1CCC[C@H](OC(=O)C(c2ccccc2)c2ccccc2)C1	inactive: 3.48% [at 11.4 µM]	–
Clc1n[nH]nc1-c1nn[nH][15n]1	inactive: 1.63%	–
O=P1(Nc2ccccn2)COc2ccccc2OC1	inactive: 16.6%	–
CN(CCCl)Cc1cc(Cl)c(NC2=NCCN2)c(Cl)c1	inactive: 11.1%	–

SMILES	activity change, negative = inhibition	Potency
CN(C(=O)Cc1ccc(Cl)c(Cl)c1)[C@@H]1CCCC[C@H]1N1CCCC1	inactive	–
Cc1nn(-c2ccccc2)c2c1P(=O)(N1CCOCC1)N(C)C(c1ccccc1)=N2 (stereo not drawn)	inactive: 2.97%	–
O=P1(Nc2ccc(Br)cn2)COc2ccccc2OC1	inactive: -7.1%	–
O=P1(Nc2ncccn2)COc2ccccc2OC1	inactive: 3.58%	–
O=[As](O)(O)c1ccc([As](=O)(O)O)cc1	inactive: 0.359% [at 11.4 µM]	–
O=P(Nc1nccs1)(c1ccccc1)c1nc2ccccc2s1 (stereo not drawn)	–	active: 0.501 µM
CCOP1(=S)c2c(C)nn(CCC#N)c2N=C(c2ccccc2F)N1C (stereo not drawn)	inactive: -0.999%	–
CCOP1(=S)c2c(C)nn(CCC#N)c2N=C(c2ccc(F)cc2)N1C (stereo not drawn)	inactive: -13.3%	–
NC(=O)Nc1ccc([As](=O)(O)O)cc1	inactive	–
O=C(CC(=O)c1ccccc1)O[C@H]1CN2CCC1CC2	inactive: -6.17% [at 11.4 µM]	–
NS(=O)(=O)Cc1ccc([As](=O)(O)O)cc1	inactive: -3.08% [at 11.4 µM]	–
NC(=O)Nc1cc([As](=O)(O)O)cc(I)c1O	inactive: 15.7% [at 11.4 µM]	–
O=C(OC1CN2CCC1CC2)C12CC3CC(CC(C3)C1)C2 (stereo not drawn)	inactive: -11%	–
O=[As]c1ccc(S(=O)(=O)NCCO)cc1 (stereo not drawn)	inactive: -0.41% [at 11.4 µM]	–
[N-]=[N+]=NCC(N)=O	inactive: 3.89% [at 11.4 µM]	–
CN(N=O)C(=N)N[N+](=O)[O-]	inactive: -2.14%	–
O=C(O)[C@@H](O)c1ccc([As](=O)(O)O)cc1	inactive: 1.22% [at 11.4 µM]	–
O=C(COc1ccccc1)OC1CN2CCC1CC2 (stereo not drawn)	inactive: 5.46%	–
COP1(=S)c2c(C)nn(CCC#N)c2N=C(c2ccc(F)cc2)N1C (stereo not drawn)	inactive: 4.54%	–
